Experimental data: paper PMC3934827 (Neuropharmacology, 2014)

Assays:
[1] = tested on: parkinsonian motor effects; assay: Standardized motor disability scale for parkinsonian primates; type: in vivo, Rhesus monkeys (Macaca mulatta); settings: risperidone 0.032 and 0.1 mg/kg s.c.
[2] = tested on: cortical-, extrapyramidal motor- and autonomic-mediated functions; assay: Drug Effects on Nervous System; settings: risperidone s.c.; p < 0.001

`Cc1nc2n(c(=O)c1CCN1CCC(c3noc4cc(F)ccc34)CC1)CCCC2` [risperidone, reference compound] was tested, and the “social interaction score, in comparison to MP-10” value [1] was “roughly comparable increases” and the “DENS salivation, compared with MP-10” value [2] was “considerably more salivation”.
